By UniProt entry, the sequences of proteins in these tests, tags left out. Residues count along the entry.
UniProt P35968, 20-1356: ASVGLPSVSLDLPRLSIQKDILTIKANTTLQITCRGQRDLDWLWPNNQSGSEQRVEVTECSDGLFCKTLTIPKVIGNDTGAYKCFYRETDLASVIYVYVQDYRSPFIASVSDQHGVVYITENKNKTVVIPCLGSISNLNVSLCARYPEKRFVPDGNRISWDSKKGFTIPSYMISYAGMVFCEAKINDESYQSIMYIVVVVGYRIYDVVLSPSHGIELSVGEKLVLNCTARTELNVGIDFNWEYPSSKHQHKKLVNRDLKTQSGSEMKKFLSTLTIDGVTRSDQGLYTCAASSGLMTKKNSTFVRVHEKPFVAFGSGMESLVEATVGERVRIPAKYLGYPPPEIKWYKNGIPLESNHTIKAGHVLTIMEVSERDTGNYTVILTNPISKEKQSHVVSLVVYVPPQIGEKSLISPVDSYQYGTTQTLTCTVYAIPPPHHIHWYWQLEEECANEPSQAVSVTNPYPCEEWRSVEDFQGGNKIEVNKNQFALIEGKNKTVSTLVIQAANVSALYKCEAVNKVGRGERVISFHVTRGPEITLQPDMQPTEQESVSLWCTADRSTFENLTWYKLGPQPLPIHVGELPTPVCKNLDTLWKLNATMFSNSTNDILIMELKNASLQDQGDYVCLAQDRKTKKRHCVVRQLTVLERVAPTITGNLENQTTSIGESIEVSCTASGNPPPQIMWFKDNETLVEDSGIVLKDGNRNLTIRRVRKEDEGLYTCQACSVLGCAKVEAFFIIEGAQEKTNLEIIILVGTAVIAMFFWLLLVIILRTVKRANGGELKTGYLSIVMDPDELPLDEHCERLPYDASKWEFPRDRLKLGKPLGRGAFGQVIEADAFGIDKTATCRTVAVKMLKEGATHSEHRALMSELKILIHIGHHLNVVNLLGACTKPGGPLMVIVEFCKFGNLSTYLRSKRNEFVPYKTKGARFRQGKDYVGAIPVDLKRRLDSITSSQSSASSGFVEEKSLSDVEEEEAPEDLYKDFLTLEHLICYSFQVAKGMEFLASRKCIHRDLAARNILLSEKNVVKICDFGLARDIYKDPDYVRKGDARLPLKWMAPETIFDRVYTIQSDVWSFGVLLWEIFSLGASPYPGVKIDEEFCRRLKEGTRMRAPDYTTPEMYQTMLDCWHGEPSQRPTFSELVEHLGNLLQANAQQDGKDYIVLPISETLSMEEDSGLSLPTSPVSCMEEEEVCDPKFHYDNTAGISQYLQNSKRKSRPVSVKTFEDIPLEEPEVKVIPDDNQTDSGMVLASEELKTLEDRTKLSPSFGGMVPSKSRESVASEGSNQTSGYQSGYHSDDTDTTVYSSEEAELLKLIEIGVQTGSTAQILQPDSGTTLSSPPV
UniProt P35968, 20-764, stated change not applied: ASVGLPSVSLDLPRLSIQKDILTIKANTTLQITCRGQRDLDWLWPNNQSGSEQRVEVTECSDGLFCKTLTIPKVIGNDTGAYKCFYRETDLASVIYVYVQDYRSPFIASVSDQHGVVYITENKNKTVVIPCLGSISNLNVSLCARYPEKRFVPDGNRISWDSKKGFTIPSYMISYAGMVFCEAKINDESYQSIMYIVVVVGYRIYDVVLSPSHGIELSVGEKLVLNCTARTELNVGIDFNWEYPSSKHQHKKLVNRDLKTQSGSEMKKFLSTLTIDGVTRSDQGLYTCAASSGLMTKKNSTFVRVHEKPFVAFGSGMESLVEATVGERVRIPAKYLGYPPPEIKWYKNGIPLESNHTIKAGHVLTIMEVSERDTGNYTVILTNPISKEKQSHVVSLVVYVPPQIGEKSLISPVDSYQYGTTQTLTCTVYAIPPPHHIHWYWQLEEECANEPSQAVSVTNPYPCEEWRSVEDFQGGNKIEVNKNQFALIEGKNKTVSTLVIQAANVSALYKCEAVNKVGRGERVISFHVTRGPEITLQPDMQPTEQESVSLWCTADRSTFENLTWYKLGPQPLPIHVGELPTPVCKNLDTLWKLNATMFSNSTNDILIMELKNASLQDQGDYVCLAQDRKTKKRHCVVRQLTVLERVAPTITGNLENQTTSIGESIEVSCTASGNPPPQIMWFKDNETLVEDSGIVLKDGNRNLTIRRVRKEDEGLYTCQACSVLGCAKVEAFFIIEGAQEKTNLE

According to US20050147555A1 (BRACCO SUISSE, published 2005):

B1: P12-XB (4X) on neutravidin-HRP (other)
peptide: AGPTWCEDDWYYCWLFGTGGGK
modifications: Ac-; C6-C13 disulfide; K22(Biotin-JJ); -NH2
notes: Peptides held on the four biotin sites of neutravidin-HRP; also called tetrameric P12-XB; P12-XB Tetramer
B2: P13-XB (4X) on neutravidin-HRP (other)
peptide: AQDWYYDEILSMADQLRHAFLSGGGGGK
modifications: Ac-; K28(Biotin-JJ); -NH2
notes: Peptides held on the four biotin sites of neutravidin-HRP; also called tetrameric P13-XB; P13-XB Tetramer

Columns and labels:
[1] = target: T1, KDR (VEGFR-2, Flk-1), full-length receptor on cells (human, UniProt P35968 20-1356); experiment: saturation binding of peptide/neutravidin-HRP complex to KDR-transfected 293H cells; P6-F-XB, one experiment
T1 construct: whole, on cells; endogenous on HUVECs in the functional assays; also called VEGF receptor 2

[2] = target: T1, KDR (VEGFR-2, Flk-1), full-length …; experiment: displacement of P12-XB/streptavidin-HRP complex (5.5 nM) from KDR-expressing cells
[3] = target: T1, KDR (VEGFR-2, Flk-1), full-length …; experiment: saturation binding of peptide/neutravidin-HRP complex, KDR- minus mock-transfected 293H cells
Description: After incubation at room temperature, plates were transferred to 4° C. for another half-hour incubation.

[4] = target: T2, KDR-Fc (chimeric fusion of Ig Fc region with human KDR, R&D Systems #357-KD-050) (human, UniProt P35968 20-764); experiment: fluorescence polarisation, fluoresceinated monodentate peptide against KDRFc
T2 construct: Bought; also called KDR Fc fusion; not shown: Ig Fc region of the bought chimera

Row | Binder | Kd [3] [nM] | Kd [4] [nM] | other results
1 | VCWEDSWGGEVCFRYDPGGGK (other, Ac-; C2-C12 disulfide; K21(Biotin-JJ); -NH2) [P6-F-XB on neutravidin-HRP] |  |  | Kd [1]: 6.94 nM
2 | AGPTWCEDDWYYCWLFGTGGGK (N-acetyl; Cys6-Cys13 disulfide; C-terminal amide) [P12-G] |  |  | IC50 [2]: 13 nM
3 | B1 | 4.03 |  | 
4 | B2 | 1.81 |  | 
5 | GDSRVCWEDSWGGEVCFRYDPGGGK (fluorescein on the C-terminal lysine; C-terminal amide) [P6, fluoresceinated monodentate peptide] |  | 69 | 
6 | AGPKWCEEDWYYCMITGTGGGK (fluorescein on the C-terminal lysine; C-terminal amide) [P5, fluoresceinated monodentate peptide] |  | 280 | 
